The values that follow come from ChEMBL document CHEMBL4627330, “Structural investigation on thiazolo[5,4-d]pyrimidines to obtain dual-acting blockers of CD73 and adenosine A2A receptor as potential antitumor agents” (Bioorg Med Chem Lett, 2020).

Sequences of proteins named here, by UniProt entry; tags and fusion partners are left off.
UniProt P0DMS8, whole entry: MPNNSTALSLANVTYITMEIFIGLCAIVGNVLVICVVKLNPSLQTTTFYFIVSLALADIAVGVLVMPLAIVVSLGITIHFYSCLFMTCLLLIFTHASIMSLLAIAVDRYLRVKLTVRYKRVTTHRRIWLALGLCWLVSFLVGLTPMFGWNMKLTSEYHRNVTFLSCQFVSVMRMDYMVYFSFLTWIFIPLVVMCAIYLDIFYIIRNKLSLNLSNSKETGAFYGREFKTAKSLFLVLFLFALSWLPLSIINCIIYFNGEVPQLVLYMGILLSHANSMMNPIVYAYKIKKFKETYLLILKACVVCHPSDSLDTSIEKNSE

The structures appear in SMILES notation.

This test addresses Adenosine receptor A3 (Homo sapiens, UniProt P0DMS8). The test can be described thus: Displacement of [125I]AB-MECA from human A3R expressed in CHO cells at 10 uM relative to control.

The term inhibition denotes the relative decrease from the control value, in per cent.

For `Nc1nc(NCCN2CCN(c3ccc(S(N)(=O)=O)cc3)CC2)nc2sc(-c3ccco3)nc12`, the inhibition turned out to be 27%.
